The source of these data is patent US6630501B1, “Phosphinic pseudo-peptides that may be used as matrix zinc metalloprotease inhibitors” (Commissariat a l'energie Atomique, priority 1999, dated 2003).

By UniProt entry, the sequences of proteins in these tests, tags left out. Residues count along the entry.
UniProt P03956, 100-469 limits assumed: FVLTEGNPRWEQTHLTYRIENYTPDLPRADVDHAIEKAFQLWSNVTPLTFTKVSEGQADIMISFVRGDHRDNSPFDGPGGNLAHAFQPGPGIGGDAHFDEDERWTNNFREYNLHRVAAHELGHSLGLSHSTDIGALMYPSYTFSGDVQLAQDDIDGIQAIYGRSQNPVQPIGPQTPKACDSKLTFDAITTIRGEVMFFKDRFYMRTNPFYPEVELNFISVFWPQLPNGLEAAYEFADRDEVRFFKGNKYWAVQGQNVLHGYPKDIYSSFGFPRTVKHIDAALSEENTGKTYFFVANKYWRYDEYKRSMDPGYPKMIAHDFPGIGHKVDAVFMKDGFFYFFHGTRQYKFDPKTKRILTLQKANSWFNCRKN
UniProt P09237, 95-267 limits assumed: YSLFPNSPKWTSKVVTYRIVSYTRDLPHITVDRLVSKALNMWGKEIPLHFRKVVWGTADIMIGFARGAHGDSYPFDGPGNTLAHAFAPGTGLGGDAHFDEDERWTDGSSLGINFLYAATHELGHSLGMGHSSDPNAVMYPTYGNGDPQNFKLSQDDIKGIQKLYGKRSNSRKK

As a reminder, the Ki is the dissociation constant of the complex between target and ligand, obtained from inhibition or displacement.

The target of one assay is MMP-1 (HFC) (Homo sapiens, UniProt P03956). Briefly: Ki determination with fluorogenic synthetic substrates, recombinant MMP-1. The protocol: (§1) In this example, the affinity constant Ki of the pseudo-peptides in tables 5 to 8 are examined with respect to the different matrix metalloproteases MMP.
(§2) The MMPs used were produced in recombinant form, in an E. coli expression system, and then purified using different types of chromatographies. Apart from stromelysin-3 (MMP-11), the MMPs produces correspond to human sequences. The Stromelysin-3 used in this study corresponds to the murine form.
(§3) The activity of each MMP was determined using two fluorogenic synthetic substrates. The cutoff of said substrates, which generates a fluorescent signal proportional to the quantity of split substrate, enables a precise determination of the kinetic parameters. The affinity constants Ki were calculated using the equation of Horowitz et al, Proc. Natl. Acad. Sci. USA, 1987, 84, p. 6654-6658 [14], accounting for the dependency of the percentage of inhibition measured experimentally according to the concentration of inhibitor, as a function of the enzyme and substrate concentration.
(§4) The experiments for conducted in a Tris/50 mM HCl buffer, pH 6.8, 10 mM CaCl2, 25° C.

The target in another assay is MMP-7 (Matrilysin) (Homo sapiens, UniProt P09237). The assay can be described thus: Ki determination with fluorogenic synthetic substrates, recombinant MMP-7. As to the method: as §1, §2, §3, §4

`NC(=O)[C@H](Cc1c[nH]c2ccccc12)NC(=O)C(Cc1ccc2ccccc2c1)CP(=O)(O)C(Cc1ccccc1)NC(=O)OCc1ccccc1` (stereo partly shown): the “percentage of inhibition, MMP-1” value at MMP-1 (HFC) (@ 5 mM inhibitor) was found to be 0% @ 5 mM.
Consider `CCCCCCCC(CP(=O)(O)C(Cc1ccccc1)NC(=O)OCc1ccccc1)C(=O)N[C@@H](Cc1c[nH]c2ccccc12)C(N)=O` (stereo partly shown), for which, at MMP-7 (Matrilysin) (@ 50 mM inhibitor), the “percentage of inhibition, MMP-7” value is reported as 50% @ 50 mM.
As for `NC(=O)[C@H](Cc1c[nH]c2ccccc12)NC(=O)C(CCc1ccc2ccccc2c1)CP(=O)(O)C(Cc1ccccc1)NC(=O)OCc1ccccc1` (stereo partly shown), the “percentage of inhibition, MMP-1” value on MMP-1 (HFC) (@ 2 mM inhibitor) is given as 0% @ 2 mM. In addition, on MMP-7 (Matrilysin) (read-out: affinity constant Ki, MMP-7 Matrilysin, Tris/50 mM HCl buffer, pH 6.8, 10 mM CaCl2, 25° C.), the inhibition constant Ki amounted to 210 nM.
